In patent US6372493B1, “Hormone-secreting cells maintained in long-term culture” (Pacific Biomedical Research, Inc. [Cell Mart, Inc.], priority 1991, dated 2002):

Tests used:
[1] = test system: Ovarian follicular cells, lines 100B-OR-5A, 100B5-OR-B, 100B5-OR-D; test: hCG (gonadotrophin) stimulation of steroid secretion by cultured follicular cells, RIA; assay type: cell-based, human; conditions: for E2 + hCG / Prog + hCG: hCG 750 ng/ml in DM-1
From the text: (§1) Cells in SC-2 were propagated and sub-cultured as above more than 20 times. Medium was collected from each sub-culture at regular intervals and assayed for the presence of secreted estradiol (E2), progesterone, luteinizing hormone (LH), follicle stimulating hormone (FSH), thyroid stimulating hormone (TSH), prolactin, testosterone and the β-chain of human chorionic gonadotrophin (B-hCG). Quantitative radioimmune assays (RIA) were employed as described in Radioassay Systems in Clinical Endocrinology, 1981, Ed. G. E. Abraham, {Basel: Marcel Dekker}, pp. 475-529. Progesterone, testosterone, estradiol, prolactin, thyroid stimulating hormone and luteinizing hormone were assayed by the Coat-a-Count procedure (Diagnostic Products Corp., Los Angeles). Follicle-stimulating hormone and B-hCG were assayed by the SERONO MATAclone procedure (Serono, Italy).
(§2) Ovarian follicular cells, lines 100B-OR-5A, 100B5-OR-B, and 100B5-OR-D, were established in culture as described in Example 1 and maintained and sub-cultured as described in Example 2. From these lines were created sub-cultures designated 1, 2, and 3 respectively, which were employed in the stimulation protocol described below.
(a) Gonadotrophin stimulation: Human chorionic gonadotrophin (hCG; Sigma) was added to the culture medium (DM-1) in the amount of 750 ng/ml. After 70 to 76 hours, progesterone content of the medium was increased approximately two-fold over control. Estradiol synthesis was also stimulated by hCG, leading to an increased estradiol content of 0.4 to 0.5 fold over control within 30 hours.

[2] = test system: Ovarian follicular cells, lines 100B-OR-5A, 100B5-OR-B, 100B5-OR-D; test: 8-Br-cAMP / FSH stimulation of progesterone secretion by cultured follicular cells; assay type: cell-based, human; conditions: FSH 1IU/ml, 48 hours
From the text: as §1, §2
(b) cAMP stimulation: Cultures were exposed to 1 mM 8-Br-cAMP (Sigma) or to FSH (1IU/ml; Metrodin [urofollitropin], Lot No. 07321070, Serono, Italy). […] FSH stimulation for 48 hours led to an increase in progesterone content of 6.5 to 7.7 fold.

Substance	E2 + hCG ([1]; culture 1) [pg/mL]	Prog + hCG ([1]; culture 1) [ng/mL]	E2 + hCG ([1]; culture 2) [pg/mL]	Prog + hCG ([1]; culture 2) [ng/mL]	progesterone content of the medium, increase over control ([1]; hCG 750 ng/ml, after 70 to 76 hours)	Prog ([2]; culture 1) [ng/10^6 cells]	Prog ([2]; culture 2) [ng/10^6 cells]	Prog ([2]; culture 3) [ng/10^6 cells]
hCG: Human chorionic gonadotrophin (hCG; Sigma)	43	12.1	76	19.8	approximately two-fold	–	–	–
FSH: FSH (1IU/ml; Metrodin [urofollitropin], Lot No. 07321070, Serono, Italy)	–	–	–	–	–	17.2	10.8	18.9
